# AlphaSeq binding of Ab-95 light chain variants to a spike HR2 peptide

Source: Engelhart et al. 2022 (doi:10.1038/s41597-022-01779-4), MIT Lincoln Laboratory and A-Alpha Bio; data file from the FLAb repository.

Target: peptide PDVDLGDISGINAS, taken from heptad repeat 2 (HR2) of SARS-CoV-2 spike.

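The starting antibody came from a phage panning campaign against this peptide. Variants in AAYL52 differ from the parent at up to three CDR positions; double and triple changes were sampled at random. In AlphaSeq, yeast of one mating type display the scFv and yeast of the other type display the target. Mating (16 h, 30 °C) was followed by selection of diploids and sequencing of their barcodes. Scores were corrected for input abundance and mapped to Kd with protein pairs of known affinity run in the same pool. The assay was run in three technical replicates.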

Parent scFv Ab-95: VH joined to VL by the linker GGGGSGGGGSGGGGS. Changes lie in the light chain CDRs alone.
VH: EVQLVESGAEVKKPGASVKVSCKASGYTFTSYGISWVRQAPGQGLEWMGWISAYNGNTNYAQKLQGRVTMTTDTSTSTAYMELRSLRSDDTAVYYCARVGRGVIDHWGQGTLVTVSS
VL: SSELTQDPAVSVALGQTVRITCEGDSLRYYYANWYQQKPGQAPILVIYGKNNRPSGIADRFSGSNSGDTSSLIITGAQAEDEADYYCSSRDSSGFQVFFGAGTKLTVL

Changes read parent residue, position, new residue, counted from the first residue of the VL shown.
This list gathers variants with a substitution at N52 (VL, numbered from residue 1).
Affinities are written as log10 Kd with Kd in nM; a lower number is a better binder.
Replicates are averaged; those with no signal do not enter the mean.
"nd" means that the variant was in the library but no mating with the target was seen in that replicate; the authors take this as a sign of poor binding, and no number exists.
In this assay the parent's reference entry averaged 2.31; its copy inside this library read 2.25.
As a blank, each scFv also met three strains without target: over library AAYL52, 28% of these pairings were detected, typically at 3.91 and seldom below 2.90.

changes,"replicates, log10 nM","mean, log10 nM"
N33H+K50P+N52Q,2.26 2.72 2.06,2.35
S26Y+Y30T+N52I,1.60 1.44 1.08,1.37
L27F+N52R+S89Q,3.92 nd nd,3.92
L27K+Y30D+N52I,2.41 2.63 1.89,2.31
N52G+P54E+D91Q,5.34 2.83 3.46,3.88
S26E+N52W+S93A,4.30 nd nd,4.30
N52Q+D91M+S92Q,nd nd 3.46,3.46
N52I+P54D+S92M,3.49 3.09 2.79,3.12
N52D,2.04 1.69 1.76,1.83
L27P+N33M+N52T,3.78 4.81 2.83,3.81
N52Q+P54E+S55W,3.16 2.50 2.35,2.67
N51Q+N52S+F98C,2.35 3.05 3.19,2.87
N33S+N52Y+P54C,4.53 nd nd,4.53
Y31N+N33P+N52G,4.89 4.49 nd,4.69
R28G+A32Q+N52L,3.45 2.99 4.50,3.65
S26W+N52Q+P54V,3.40 3.64 nd,3.52
N52W+S92C+G94Q,nd nd nd,nd
Y29R+N52R,3.55 3.03 3.86,3.48
N52S+R53H+V97C,3.04 3.06 2.32,2.81
N52I+S88P+G94A,2.75 2.23 2.06,2.35
D25Q+A32F+N52I,2.53 3.24 2.22,2.67
G49V+N52V+R53M,nd 3.38 nd,3.38
R28N+N52Q+S93T,1.70 1.66 1.42,1.59
R28T+N52F,3.74 nd nd,3.74
K50F+N52Y+R53I,3.99 nd nd,3.99
E23P+N52M+S88N,4.78 nd nd,4.78
R28P+N52P+S88I,4.28 4.83 3.41,4.17
Y30H+G49A+N52L,1.77 1.61 1.20,1.53
L27H+N52G+G94T,4.38 nd nd,4.38
G24E+N52K+Q96E,5.36 nd nd,5.36
Y29N+Y30D+N52R,2.13 2.28 2.25,2.22
N52S+S55K+F98R,2.58 2.38 2.24,2.40
L27H+N52Y+S55N,3.27 2.65 3.27,3.06
N52L+R90A+F95T,2.97 2.34 2.68,2.66
K50N+N52K+P54E,2.65 2.45 2.94,2.68
L27F+Y31P+N52C,2.58 2.11 2.62,2.44
N52C+R90P+Q96G,nd nd nd,nd
D25Q+Y30W+N52Y,3.30 3.70 3.26,3.42
N52D+S92Q,1.29 1.29 2.26,1.61
A32T+N52T,2.74 2.44 2.11,2.43

The 3 strongest on average among those seen in every replicate, once more:

changes,"replicates, log10 nM","mean, log10 nM"
S26Y+Y30T+N52I,1.60 1.44 1.08,1.37
Y30H+G49A+N52L,1.77 1.61 1.20,1.53
R28N+N52Q+S93T,1.70 1.66 1.42,1.59